From publication PMC3408453, “A Foldamer-Dendrimer Conjugate Neutralizes Synaptotoxic β-Amyloid Oligomers” (PLoS ONE, 2012) come the findings set out here.

SMILES strings stand for the structures. Like-named read-outs stand apart in the source and are kept apart here.

The target in one data set is T1, oligomeric Aβ (Homo sapiens, UniProt P05067).
T1 construct: a depsipeptide derivative of Aβ(1–42) was utilized; made in house; host or cells: chemical peptide synthesis (no expression host)
The data set is described as follows: Capture ELISA, biotinyl ligands on streptavidin plate, oligomeric Aβ detected by BAM10. The class given is binding. The method, then:
Biotin-labeled 1 was prepared by elongating the foldamer segment with a biotinyl-aminohexanoyl-Gly-Gly moiety and these derivatives were coupled to G0-PAMAM which furnished biotin-labeled 7. Biotinyl-8 was also prepared. All the labeled ligands were attached to the streptavidin functionalized microplates with a coverage of 5 pmoles per well. […] Because of the potential sterical shielding of the recognition segments over the surface, the ITC affinities cannot be directly compared to the ELISA results.
(§1) Figure 6 ELISA results. (A) Effects of multivalency on the affinities. Normalized absorbances recorded in capture ELISA experiments, where the biotinyl-7 (circles), -8 (triangles) or -1 (squares) are attached to the streptavidin functionalized plate and the increasing surface concentration of Aβ is observed through the BAM10 antibody.
An indirect ELISA experiment was conducted on 96-well streptavidin-coated clear plates (Pierce, Cat.No. 15500, Rockford, IL, US). Biotinyl-compounds bound to streptavidin by incubating 1 µg substance per well for 2 h at ambient temperature. Aβ(1–42) was dissolved in PBS to 100 µM and incubated for 24 h at 37°C. Serial dilutions of the incubated peptide were prepared, and supplemented with Tween (0.05% v/v of the final volume) and BSA (1% w/v of the final volume) prior to use. Compounds were incubated with Aβ oligomers for 1 h at ambient temperature. Bound Aβ was detected by monoclonal anti-Aβ AB clone Bam-10 (Sigma-Aldrich) applied in 1∶10000 dilution for 1 h followed by an incubation with anti-mouse IgG-HRP (DakoCytomation, Glostrup Denmark). Finally, 100 µL tetramethylbenzidine (TMB) solution (Cell Signaling Tecnology Inc., Danvers, USA) was introduced into the wells, and the change in the absorbance at 370 nm was monitored constantly, without the addition of stop solution, on a 96-well plate reader (NOVOstar OPTIMA, BMG Labtech, Offenburg, Germany) equipped with a xenon lamp, fiberglass optics and a shaking microplate carrier. Abs370 values were read near complete saturation of the signal intensity, which was observed after 40 min. For the quantitative analysis of the results, nonlinear regressions were carried out and the IC50 values were optimized with fixed number of blocked ligands per Aβ peptide as determined by ITC [80]. […] Concerning the steric shielding exerted by the solid support, the apparent binding parameters estimated from ELISA are in good accordance.

Another data set concerns the target T2, fibrillar Aβ (Homo sapiens, UniProt P05067).
T2 construct: Aβ(1–42) was dissolved in PBS to 100 µM and incubated for 24 h at 37°C; made in house; host or cells: chemical peptide synthesis (no expression host)
Nature of the data set: Capture ELISA, biotinyl ligand on streptavidin plate, fibrillar Aβ. The class given is binding. The method, then: as §1
This phenomenon was tested also in a capture ELISA. Biotin-labeled 4 and 5 were prepared as described and ligation to G0-PAMAM yielded biotin-labeled 9 and 10, respectively. ELISA measurements confirmed the ITC findings (Figure 6B). […]
An indirect ELISA experiment was conducted on 96-well streptavidin-coated clear plates (Pierce, Cat.No. 15500, Rockford, IL, US). […] Bound Aβ was detected by monoclonal anti-Aβ AB clone Bam-10 (Sigma-Aldrich) applied in 1∶10000 dilution for 1 h followed by an incubation with anti-mouse IgG-HRP (DakoCytomation, Glostrup Denmark). Finally, 100 µL tetramethylbenzidine (TMB) solution (Cell Signaling Tecnology Inc., Danvers, USA) was introduced into the wells, and the change in the absorbance at 370 nm was monitored constantly, without the addition of stop solution, on a 96-well plate reader (NOVOstar OPTIMA, BMG Labtech, Offenburg, Germany) equipped with a xenon lamp, fiberglass optics and a shaking microplate carrier. Abs370 values were read near complete saturation of the signal intensity, which was observed after 40 min. […]

Setting [1] is: biotinyl ligand on streptavidin plate, fitted with fixed N from ITC, read-out: ELISA IC50, oligomeric Aβ.
The mark [2] stands for this setting: read-out: ELISA IC50, oligomeric Aβ, biotinyl ligand on streptavidin plate, fitted with fixed N from ITC.

As for `N=C(N)NCCC[C@@H](CC(=O)N[C@H]1CCCC[C@@H]1C(=O)N[C@H]1CCCC[C@@H]1C(=O)N[C@@H](CC(=O)O)CC(=O)N[C@H]1CCCC[C@@H]1C(N)=O)NC(=O)[C@H]1CCCC[C@@H]1N` [Compound 1], the IC50 at oligomeric Aβ (setting [1]) amounted to 12 µM.

Consider `N=C(N)NCCC[C@@H](CC(=O)N[C@H]1CCCC[C@@H]1C(=O)N[C@H]1CCCC[C@@H]1C(=O)N[C@@H](CC(=O)O)CC(=O)N[C@H]1CCCC[C@@H]1C(=O)NCC(=O)NCC(=O)N[C@@H](CSC1CC(=O)N(CCC(=O)NCCNC(=O)CCN(CCC(=O)NCCNC(=O)CCN2C(=O)CC(SC[C@H](NC(=O)CNC(=O)CNC(=O)[C@H]3CCCC[C@@H]3NC(=O)C[C@H](CC(=O)O)NC(=O)[C@H]3CCCC[C@@H]3NC(=O)[C@H]3CCCC[C@@H]3NC(=O)C[C@H](CCCNC(=N)N)NC(=O)[C@H]3CCCC[C@@H]3N)C(N)=O)C2=O)CCN(CCC(=O)NCCNC(=O)CCN2C(=O)CC(SC[C@H](NC(=O)CNC(=O)CNC(=O)[C@H]3CCCC[C@@H]3NC(=O)C[C@H](CC(=O)O)NC(=O)[C@H]3CCCC[C@@H]3NC(=O)[C@H]3CCCC[C@@H]3NC(=O)C[C@H](CCCNC(=N)N)NC(=O)[C@H]3CCCC[C@@H]3N)C(N)=O)C2=O)CCC(=O)NCCNC(=O)CCN2C(=O)CC(SC[C@H](NC(=O)CNC(=O)CNC(=O)[C@H]3CCCC[C@@H]3NC(=O)C[C@H](CC(=O)O)NC(=O)[C@H]3CCCC[C@@H]3NC(=O)[C@H]3CCCC[C@@H]3NC(=O)C[C@H](CCCNC(=N)N)NC(=O)[C@H]3CCCC[C@@H]3N)C(N)=O)C2=O)C1=O)C(N)=O)NC(=O)[C@H]1CCCC[C@@H]1N` (some centres unmarked) [Compound 7], for which the concentration for half-maximal inhibition (IC50) on oligomeric Aβ (setting [2]) came out at 0.126 µM; with fibrillar Aβ, 0.886 µM.

As to `N=C(N)NCCC[C@@H](CC(=O)N[C@H]1CCCC[C@@H]1C(=O)N[C@H]1CCCC[C@@H]1C(=O)N[C@@H](CC(=O)O)CC(=O)N[C@H]1CCCC[C@@H]1C(=O)NCC(=O)NCC(=O)N[C@@H](CSC1CC(=O)N(CCCCN2C(=O)CC(SC[C@H](NC(=O)CNC(=O)CNC(=O)[C@H]3CCCC[C@@H]3NC(=O)C[C@H](CC(=O)O)NC(=O)[C@H]3CCCC[C@@H]3NC(=O)[C@H]3CCCC[C@@H]3NC(=O)C[C@H](CCCNC(=N)N)NC(=O)[C@H]3CCCC[C@@H]3N)C(N)=O)C2=O)C1=O)C(N)=O)NC(=O)[C@H]1CCCC[C@@H]1N` (some centres unmarked) [Compound 8], the IC50 on oligomeric Aβ (setting [1]) came out at 0.933 µM.

For the molecule `NC(=O)[C@H](CSC1CC(=O)N(CCC(=O)NCCNC(=O)CCN(CCC(=O)NCCNC(=O)CCN2C(=O)CC(SC[C@H](NC(=O)CNC(=O)CNC(=O)[C@H]3CCCC[C@@H]3NC(=O)C[C@H](CO)NC(=O)[C@H]3CCCC[C@@H]3NC(=O)[C@H]3CCCC[C@@H]3NC(=O)C[C@H](CO)NC(=O)[C@H]3CCCC[C@@H]3N)C(N)=O)C2=O)CCN(CCC(=O)NCCNC(=O)CCN2C(=O)CC(SC[C@H](NC(=O)CNC(=O)CNC(=O)[C@H]3CCCC[C@@H]3NC(=O)C[C@H](CO)NC(=O)[C@H]3CCCC[C@@H]3NC(=O)[C@H]3CCCC[C@@H]3NC(=O)C[C@H](CO)NC(=O)[C@H]3CCCC[C@@H]3N)C(N)=O)C2=O)CCC(=O)NCCNC(=O)CCN2C(=O)CC(SC[C@H](NC(=O)CNC(=O)CNC(=O)[C@H]3CCCC[C@@H]3NC(=O)C[C@H](CO)NC(=O)[C@H]3CCCC[C@@H]3NC(=O)[C@H]3CCCC[C@@H]3NC(=O)C[C@H](CO)NC(=O)[C@H]3CCCC[C@@H]3N)C(N)=O)C2=O)C1=O)NC(=O)CNC(=O)CNC(=O)[C@H]1CCCC[C@@H]1NC(=O)C[C@H](CO)NC(=O)[C@H]1CCCC[C@@H]1NC(=O)[C@H]1CCCC[C@@H]1NC(=O)C[C@H](CO)NC(=O)[C@H]1CCCC[C@@H]1N` (some centres unmarked) [Compound 9], on oligomeric Aβ (setting [2]), the IC50 was found to be 4.4 µM.

Take `N=C(N)NCCC[C@@H](CC(=O)N[C@H]1CCCC[C@@H]1C(=O)N[C@@H](CC(=O)O)CC(=O)N[C@H]1CCCC[C@@H]1C(=O)N[C@H]1CCCC[C@@H]1C(=O)NCC(=O)NCC(=O)N[C@@H](CSC1CC(=O)N(CCC(=O)NCCNC(=O)CCN(CCC(=O)NCCNC(=O)CCN2C(=O)CC(SC[C@H](NC(=O)CNC(=O)CNC(=O)[C@H]3CCCC[C@@H]3NC(=O)[C@H]3CCCC[C@@H]3NC(=O)C[C@H](CC(=O)O)NC(=O)[C@H]3CCCC[C@@H]3NC(=O)C[C@H](CCCNC(=N)N)NC(=O)[C@H]3CCCC[C@@H]3N)C(N)=O)C2=O)CCN(CCC(=O)NCCNC(=O)CCN2C(=O)CC(SC[C@H](NC(=O)CNC(=O)CNC(=O)[C@H]3CCCC[C@@H]3NC(=O)[C@H]3CCCC[C@@H]3NC(=O)C[C@H](CC(=O)O)NC(=O)[C@H]3CCCC[C@@H]3NC(=O)C[C@H](CCCNC(=N)N)NC(=O)[C@H]3CCCC[C@@H]3N)C(N)=O)C2=O)CCC(=O)NCCNC(=O)CCN2C(=O)CC(SC[C@H](NC(=O)CNC(=O)CNC(=O)[C@H]3CCCC[C@@H]3NC(=O)[C@H]3CCCC[C@@H]3NC(=O)C[C@H](CC(=O)O)NC(=O)[C@H]3CCCC[C@@H]3NC(=O)C[C@H](CCCNC(=N)N)NC(=O)[C@H]3CCCC[C@@H]3N)C(N)=O)C2=O)C1=O)C(N)=O)NC(=O)[C@H]1CCCC[C@@H]1N` (some centres unmarked) [Compound 10]: at oligomeric Aβ (setting [2]), the IC50 stood at 18.5 µM.

Turning to `NC(=O)[C@H](CSC1CC(=O)N(CCC(=O)NCCNC(=O)CCN(CCC(=O)NCCNC(=O)CCN2C(=O)CC(SC[C@H](NC(=O)CNC(=O)CNC(=O)[C@H]3CCCC[C@@H]3NC(=O)C[C@H](CO)NC(=O)[C@H]3CCCC[C@@H]3NC(=O)[C@H]3CCCC[C@@H]3NC(=O)C[C@H](CO)NC(=O)[C@H]3CCCC[C@@H]3NC(=O)CNC(=O)CNC(=O)CCCCCNC(=O)CCCC[C@@H]3SC[C@@H]4NC(=O)N[C@@H]43)C(N)=O)C2=O)CCN(CCC(=O)NCCNC(=O)CCN2C(=O)CC(SC[C@H](NC(=O)CNC(=O)CNC(=O)[C@H]3CCCC[C@@H]3NC(=O)C[C@H](CO)NC(=O)[C@H]3CCCC[C@@H]3NC(=O)[C@H]3CCCC[C@@H]3NC(=O)C[C@H](CO)NC(=O)[C@H]3CCCC[C@@H]3NC(=O)CNC(=O)CNC(=O)CCCCCNC(=O)CCCC[C@@H]3SC[C@@H]4NC(=O)N[C@@H]43)C(N)=O)C2=O)CCC(=O)NCCNC(=O)CCN2C(=O)CC(SC[C@H](NC(=O)CNC(=O)CNC(=O)[C@H]3CCCC[C@@H]3NC(=O)C[C@H](CO)NC(=O)[C@H]3CCCC[C@@H]3NC(=O)[C@H]3CCCC[C@@H]3NC(=O)C[C@H](CO)NC(=O)[C@H]3CCCC[C@@H]3NC(=O)CNC(=O)CNC(=O)CCCCCNC(=O)CCCC[C@@H]3SC[C@@H]4NC(=O)N[C@@H]43)C(N)=O)C2=O)C1=O)NC(=O)CNC(=O)CNC(=O)[C@H]1CCCC[C@@H]1NC(=O)C[C@H](CO)NC(=O)[C@H]1CCCC[C@@H]1NC(=O)[C@H]1CCCC[C@@H]1NC(=O)C[C@H](CO)NC(=O)[C@H]1CCCC[C@@H]1NC(=O)CNC(=O)CNC(=O)CCCCCNC(=O)CCCC[C@@H]1SC[C@@H]2NC(=O)N[C@@H]21` (some centres unmarked) [biotinyl-9], at oligomeric Aβ, the IC50 worked out at 4.4 µM.

For `N=C(N)NCCC[C@@H](CC(=O)N[C@H]1CCCC[C@@H]1C(=O)N[C@@H](CC(=O)O)CC(=O)N[C@H]1CCCC[C@@H]1C(=O)N[C@H]1CCCC[C@@H]1C(=O)NCC(=O)NCC(=O)N[C@@H](CSC1CC(=O)N(CCC(=O)NCCNC(=O)CCN(CCC(=O)NCCNC(=O)CCN2C(=O)CC(SC[C@H](NC(=O)CNC(=O)CNC(=O)[C@H]3CCCC[C@@H]3NC(=O)[C@H]3CCCC[C@@H]3NC(=O)C[C@H](CC(=O)O)NC(=O)[C@H]3CCCC[C@@H]3NC(=O)C[C@H](CCCNC(=N)N)NC(=O)[C@H]3CCCC[C@@H]3NC(=O)CNC(=O)CNC(=O)CCCCCNC(=O)CCCC[C@@H]3SC[C@@H]4NC(=O)N[C@@H]43)C(N)=O)C2=O)CCN(CCC(=O)NCCNC(=O)CCN2C(=O)CC(SC[C@H](NC(=O)CNC(=O)CNC(=O)[C@H]3CCCC[C@@H]3NC(=O)[C@H]3CCCC[C@@H]3NC(=O)C[C@H](CC(=O)O)NC(=O)[C@H]3CCCC[C@@H]3NC(=O)C[C@H](CCCNC(=N)N)NC(=O)[C@H]3CCCC[C@@H]3NC(=O)CNC(=O)CNC(=O)CCCCCNC(=O)CCCC[C@@H]3SC[C@@H]4NC(=O)N[C@@H]43)C(N)=O)C2=O)CCC(=O)NCCNC(=O)CCN2C(=O)CC(SC[C@H](NC(=O)CNC(=O)CNC(=O)[C@H]3CCCC[C@@H]3NC(=O)[C@H]3CCCC[C@@H]3NC(=O)C[C@H](CC(=O)O)NC(=O)[C@H]3CCCC[C@@H]3NC(=O)C[C@H](CCCNC(=N)N)NC(=O)[C@H]3CCCC[C@@H]3NC(=O)CNC(=O)CNC(=O)CCCCCNC(=O)CCCC[C@@H]3SC[C@@H]4NC(=O)N[C@@H]43)C(N)=O)C2=O)C1=O)C(N)=O)NC(=O)[C@H]1CCCC[C@@H]1NC(=O)CNC(=O)CNC(=O)CCCCCNC(=O)CCCC[C@@H]1SC[C@@H]2NC(=O)N[C@@H]21` (some centres unmarked) [biotinyl-10], it took 18.5 µM to reach half-maximal inhibition at oligomeric Aβ (IC50).
